{"sequences": {"note": "Amino acid sequences for entries named in this document (tags omitted). A change or cut given only in a name is not applied to a line headed by its entry.", "UniProt P48736": "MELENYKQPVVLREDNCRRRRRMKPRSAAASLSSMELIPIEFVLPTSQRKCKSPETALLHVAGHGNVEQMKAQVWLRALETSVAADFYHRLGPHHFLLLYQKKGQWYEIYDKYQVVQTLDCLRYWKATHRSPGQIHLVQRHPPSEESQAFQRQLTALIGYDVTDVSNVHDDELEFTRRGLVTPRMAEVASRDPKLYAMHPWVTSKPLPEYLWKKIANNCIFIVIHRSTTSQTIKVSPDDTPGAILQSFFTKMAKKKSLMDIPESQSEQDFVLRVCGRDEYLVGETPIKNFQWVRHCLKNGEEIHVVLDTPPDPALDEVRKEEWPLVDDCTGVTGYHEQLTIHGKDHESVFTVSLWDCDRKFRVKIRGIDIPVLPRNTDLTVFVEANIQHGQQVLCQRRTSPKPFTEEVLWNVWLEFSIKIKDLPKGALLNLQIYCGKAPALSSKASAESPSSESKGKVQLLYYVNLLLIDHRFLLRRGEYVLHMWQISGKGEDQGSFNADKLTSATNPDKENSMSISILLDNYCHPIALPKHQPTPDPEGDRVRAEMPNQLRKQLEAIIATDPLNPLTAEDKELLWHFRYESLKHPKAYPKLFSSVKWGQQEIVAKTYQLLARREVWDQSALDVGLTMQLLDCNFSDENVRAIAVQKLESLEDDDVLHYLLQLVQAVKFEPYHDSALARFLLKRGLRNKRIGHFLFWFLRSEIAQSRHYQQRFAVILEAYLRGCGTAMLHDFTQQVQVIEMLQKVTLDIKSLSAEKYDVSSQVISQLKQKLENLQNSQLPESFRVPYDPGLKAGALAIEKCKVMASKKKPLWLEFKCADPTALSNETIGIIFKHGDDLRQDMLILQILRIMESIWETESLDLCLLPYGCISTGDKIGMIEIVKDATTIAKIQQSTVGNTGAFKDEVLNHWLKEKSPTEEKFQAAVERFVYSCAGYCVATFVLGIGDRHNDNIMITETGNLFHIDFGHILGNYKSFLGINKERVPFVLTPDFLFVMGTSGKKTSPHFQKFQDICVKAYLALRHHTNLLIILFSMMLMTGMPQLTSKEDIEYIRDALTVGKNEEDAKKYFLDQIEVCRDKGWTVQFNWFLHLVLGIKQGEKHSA", "UniProt P42338": "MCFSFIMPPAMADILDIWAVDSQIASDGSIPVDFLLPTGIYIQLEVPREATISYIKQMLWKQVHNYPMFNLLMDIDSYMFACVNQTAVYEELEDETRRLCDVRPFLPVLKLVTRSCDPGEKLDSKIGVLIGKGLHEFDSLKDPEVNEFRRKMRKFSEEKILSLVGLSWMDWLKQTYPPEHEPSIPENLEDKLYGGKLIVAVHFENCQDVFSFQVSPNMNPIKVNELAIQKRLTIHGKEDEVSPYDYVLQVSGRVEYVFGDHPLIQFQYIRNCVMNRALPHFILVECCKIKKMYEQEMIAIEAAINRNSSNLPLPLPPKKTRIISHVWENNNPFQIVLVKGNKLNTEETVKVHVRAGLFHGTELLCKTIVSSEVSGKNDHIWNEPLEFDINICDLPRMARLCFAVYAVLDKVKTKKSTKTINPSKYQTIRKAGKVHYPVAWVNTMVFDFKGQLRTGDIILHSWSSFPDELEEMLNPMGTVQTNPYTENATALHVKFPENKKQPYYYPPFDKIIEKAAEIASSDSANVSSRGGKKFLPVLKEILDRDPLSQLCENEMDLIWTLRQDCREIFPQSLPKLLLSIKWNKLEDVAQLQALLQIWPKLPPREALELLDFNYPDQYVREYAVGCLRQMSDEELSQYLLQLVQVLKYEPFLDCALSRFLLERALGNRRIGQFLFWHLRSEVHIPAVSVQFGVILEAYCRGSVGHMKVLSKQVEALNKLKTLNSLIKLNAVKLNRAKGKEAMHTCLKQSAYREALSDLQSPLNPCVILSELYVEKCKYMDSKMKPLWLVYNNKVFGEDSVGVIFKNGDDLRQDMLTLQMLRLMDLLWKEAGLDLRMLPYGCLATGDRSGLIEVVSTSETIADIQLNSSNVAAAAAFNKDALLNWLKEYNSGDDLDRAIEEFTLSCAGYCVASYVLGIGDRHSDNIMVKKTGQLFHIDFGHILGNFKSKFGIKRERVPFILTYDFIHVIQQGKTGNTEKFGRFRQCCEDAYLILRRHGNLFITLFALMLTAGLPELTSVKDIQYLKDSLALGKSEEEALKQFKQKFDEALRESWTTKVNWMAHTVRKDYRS"}, "source": "BindingDB's records for patent US10172858", "about": "(Intellikine, 2019)", "key": {"[1]": {"molecular_target": "Phosphatidylinositol 4,5-bisphosphate 3-kinase catalytic subunit gamma isoform (Homo sapiens, UniProt P48736)"}, "[2]": {"molecular_target": "Phosphatidylinositol 4,5-bisphosphate 3-kinase catalytic subunit beta isoform (Homo sapiens, UniProt P42338)"}}, "data": [{"smiles": "CNc1noc2ccc(-c3nn(C(C)C)c4ncnc(N)c34)cc12", "note": "[US10172858, Table 1.15]", "values": [{"measurement": "IC50", "setting": "[1]", "value": "> 10", "unit": "µM"}]}, {"smiles": "Nc1noc2ccc(-c3nn(CCN4CCOCC4)c4ncnc(N)c34)cc12", "note": "[US10172858, Table 1.18]", "values": [{"measurement": "IC50", "setting": "[1]", "value": "> 10", "unit": "µM"}]}, {"smiles": "CCOC(=O)C(C)n1nc(-c2ccc3oc(N)nc3c2)c2c(N)ncnc21", "note": "(centres undefined) [US10172858, Table 1.24]", "values": [{"measurement": "IC50", "setting": "[1]", "value": "> 10", "unit": "µM"}]}, {"smiles": "Nc1nc2cc(-c3nn(C4CC(O)C4)c4ncnc(N)c34)ccc2o1", "note": "(centres undefined) [US10172858, Table 1.26]", "values": [{"measurement": "IC50", "setting": "[2]", "value": "< 1", "unit": "µM"}]}]}
